Measurements published in patent US20240226106A1, “INHIBITORS OF PLASMA KALLIKREIN” (SHIRE HUMAN GENETIC THERAPIES, INC., priority 2021, published 2024).

The chains behind the UniProt entries cited, without tags or fusion partners. Residues count along the entry.
UniProt P03952, 391-638 limits assumed: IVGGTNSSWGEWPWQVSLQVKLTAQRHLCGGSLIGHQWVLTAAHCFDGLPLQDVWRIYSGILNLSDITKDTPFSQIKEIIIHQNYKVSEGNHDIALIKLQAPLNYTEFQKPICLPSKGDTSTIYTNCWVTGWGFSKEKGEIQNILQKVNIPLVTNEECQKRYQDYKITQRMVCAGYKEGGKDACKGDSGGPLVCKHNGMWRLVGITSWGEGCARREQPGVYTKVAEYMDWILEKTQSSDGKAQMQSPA
UniProt P03952, 20-390 partner limits assumed: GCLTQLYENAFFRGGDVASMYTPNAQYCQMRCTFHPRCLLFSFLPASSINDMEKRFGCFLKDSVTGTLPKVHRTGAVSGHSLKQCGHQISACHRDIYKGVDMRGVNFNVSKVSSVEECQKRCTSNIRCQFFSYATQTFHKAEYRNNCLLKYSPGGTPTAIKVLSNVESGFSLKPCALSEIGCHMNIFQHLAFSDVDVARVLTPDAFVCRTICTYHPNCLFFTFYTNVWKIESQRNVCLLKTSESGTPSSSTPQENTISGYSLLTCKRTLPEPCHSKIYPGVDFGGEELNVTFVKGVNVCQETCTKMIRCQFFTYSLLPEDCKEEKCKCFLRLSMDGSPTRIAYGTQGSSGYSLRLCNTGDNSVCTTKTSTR

Experiments:
[1] = target: human activated kallikrein enzyme (Homo sapiens, UniProt P03952); test: Inhibition of human activated plasma kallikrein, fluorogenic peptide substrate (PFR-AMC), 500 pM enzyme format; settings: read-out: Primary Dose Response Assay: Average EC50, 500 pM activated kallikrein, 30 min preincubation, 10 min reaction, room temperature
plasma kallikrein = plasma kallikrein (Homo sapiens, UniProt P03952); test: Neat human plasma assay (fluorogenic peptide), contact pathway-activated plasma; settings: read-out: Human Plasma Assay: IC90; citrated human plasma, 10 nM human FXIIa activation, 100 μM PFR-AMC, room temperature

EC50 [1] [nM] | IC90 (plasma kallikrein) [nM] | Structure (SMILES)
25 to 500 | – | Cc1ccnc(C2CC2C(=O)Nc2cc(NCc3cn4cc(C5CC5)nc(N5CC(=O)N(C)C5=O)c4n3)ncn2)n1 (single isomer, unassigned) [82]
< 2.5 | < 500 | Cc1ccnc(C2CC2C(=O)Nc2cc(NCc3cn4cc(C5CC5)nc(N5CC(=O)N(C)C5=O)c4n3)ncn2)n1 (single isomer, unassigned) [81]
